Assay results: patent US20150018566A1, “TUBULIN BINDING AGENTS” (priority 2011, published 2015)

The chains behind the UniProt entries cited, without tags or fusion partners. Where a name states a change or a piece, a line headed by the entry shows the natural chain unless it says otherwise.
UniProt P15144: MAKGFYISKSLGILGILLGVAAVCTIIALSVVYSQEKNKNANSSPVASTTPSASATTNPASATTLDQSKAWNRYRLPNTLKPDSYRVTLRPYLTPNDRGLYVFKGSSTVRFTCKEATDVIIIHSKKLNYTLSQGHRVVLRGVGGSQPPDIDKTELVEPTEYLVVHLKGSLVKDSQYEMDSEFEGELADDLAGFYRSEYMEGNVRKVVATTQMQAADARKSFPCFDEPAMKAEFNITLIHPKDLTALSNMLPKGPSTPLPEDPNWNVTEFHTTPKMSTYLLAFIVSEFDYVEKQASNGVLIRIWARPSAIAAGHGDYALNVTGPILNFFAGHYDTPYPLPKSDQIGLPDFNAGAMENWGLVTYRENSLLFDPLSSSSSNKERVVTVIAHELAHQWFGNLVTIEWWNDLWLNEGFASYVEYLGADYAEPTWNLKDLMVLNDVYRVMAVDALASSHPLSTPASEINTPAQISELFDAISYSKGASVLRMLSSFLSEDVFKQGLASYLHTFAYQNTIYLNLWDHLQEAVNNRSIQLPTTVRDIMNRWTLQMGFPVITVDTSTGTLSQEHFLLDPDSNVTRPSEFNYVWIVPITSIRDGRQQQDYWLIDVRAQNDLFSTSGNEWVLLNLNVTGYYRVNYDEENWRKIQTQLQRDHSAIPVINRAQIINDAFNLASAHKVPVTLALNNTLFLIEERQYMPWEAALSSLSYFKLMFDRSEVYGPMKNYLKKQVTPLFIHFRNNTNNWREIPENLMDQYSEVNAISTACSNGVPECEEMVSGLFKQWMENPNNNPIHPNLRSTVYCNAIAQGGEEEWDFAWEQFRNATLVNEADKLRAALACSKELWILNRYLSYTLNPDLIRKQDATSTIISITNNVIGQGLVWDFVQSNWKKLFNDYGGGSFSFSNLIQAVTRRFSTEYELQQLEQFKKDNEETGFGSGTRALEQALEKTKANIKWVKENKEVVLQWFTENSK

Tests used:
[1] = target: T1, APN enzyme present on HUVECs (Homo sapiens, UniProt P15144); test: APN cell-based assay, HUVECs; settings: 2 h incubation
T1 construct: The presence of APN-expres sing cells replaced the step of the addition of the actual APN enzyme; host or cells: HUVECs
Procedure: (§1) To further investigate the APN inhibitory effect of the hybrids the APN cell-based assay was carried out as previously described using both HUVECs and PC-3 cells. In order to exclude any possible cytotoxic effects of the tubulin component of the hybrids that could interfere with the outcome of the results, it was necessary to perform cytotoxicity assays. For this purpose, the MTT assay was used as previously described; however the duration of compounds' incubation was modified to 2 h in order to correlate with the incubation period of APN cell-based assay. The presence of APN-expres sing cells replaced the step of the addition of the actual APN enzyme and the rest of the protocol remained the same. The release of the resulting product p-nitroaniline was measured spectrophotometrically at 405 nm and the level of APN present […] the cells was directly related to the intensity of the colour absorbance.
HUVECs/PC-3 cells' surface APN activity was estimated spectrophotometrically using L-leucine-p-nitroanilide as an APN substrate. 1×10^6 cells/ml ([…]) were seeded in 96-well plate and incubated overnight at 37° C. […] Following 2 h incubation at 37° C., absorbance was measured at 405 nm using a FLUOstar OPTIMA microplate reader (BMG labtech). […] The percentage APN inhibition was determined using the formula below and where appropriate, IC50 values were obtained. […]

[2] = target: T2, APN enzyme present on PC-3 cells (Homo sapiens, UniProt P15144); test: APN cell-based assay, PC-3 cells; settings: 2 h incubation
T2 construct: PC-3 cell line was selected due to its high expression of APN; host or cells: PC-3
Procedure: as §1
HUVECs/PC-3 cells' surface APN activity was estimated spectrophotometrically using L-leucine-p-nitroanilide as an APN substrate. 1×10^6 cells/ml ([…]) were seeded in 96-well plate and incubated overnight at 37° C. The following day cell medium was replaced by various concentrations of compounds diluted in HEPES buffer (100 μl). […] L-leucine-p-nitroanilide (50 μl) was added to each well to give a final concentration of 2 mM. Following 2 h incubation at 37° C., absorbance was measured at 405 nm using a FLUOstar OPTIMA microplate reader (BMG labtech). Each compound concentration was tested in quadruplicate and each experiment was performed at three independent times. The percentage APN inhibition was determined using the formula below and where appropriate, IC50 values were obtained.
% APN inhibition=100−[(mean Abs of test compound)/(mean Abs of control)]*100

## CC(C)C[C@H](NC(=O)[C@@H](O)[C@H](N)Cc1ccccc1)C(=O)O.Cl [Bestatin, bestatin hydrochloride, reference compound]
[1]; 1 μM
  percentage APN inhibition: 11.88±3.27%
[1]; 5 μM
  percentage APN inhibition: 17.86±0.75%
[2]; 1 μM
  percentage APN inhibition: 10.84±3.24%
[2]; 5 μM
  percentage APN inhibition: 15.1±0.97%
[2]; 10 μM
  percentage APN inhibition: 17.3±5.72%
[2]; 20 μM
  percentage APN inhibition: 36.11±0.9%
